Assay: Physical stability in cartridges under static conditions, visual inspection
Conditions: acidic pH, no co-polyamino acid

stability of the glucagon solution at 37° C. (1 mg/mL): 2 days | stability of the glucagon solution at 37° C. (2 mg/mL): 2 days
SMILES: CSCC[C@H](NC(=O)[C@H](CC(C)C)NC(=O)[C@H](Cc1c[nH]c2ccccc12)NC(=O)[C@H](CCC(N)=O)NC(=O)[C@@H](NC(=O)[C@H](Cc1ccccc1)NC(=O)[C@H](CC(=O)O)NC(=O)[C@H](CCC(N)=O)NC(=O)[C@H](C)NC(=O)[C@H](CCCN=C(N)N)NC(=O)[C@H](CCCN=C(N)N)NC(=O)[C@H](CO)NC(=O)[C@H](CC(=O)O)NC(=O)[C@H](CC(C)C)NC(=O)[C@H](Cc1ccc(O)cc1)NC(=O)[C@H](CCCCN)NC(=O)[C@H](CO)NC(=O)[C@H](Cc1ccc(O)cc1)NC(=O)[C@H](CC(=O)O)NC(=O)[C@H](CO)NC(=O)[C@@H](NC(=O)[C@H](Cc1ccccc1)NC(=O)[C@@H](NC(=O)CNC(=O)[C@H](CCC(N)=O)NC(=O)[C@H](CO)NC(=O)[C@@H](N)Cc1c[nH]cn1)[C@@H](C)O)[C@@H](C)O)C(C)C)C(=O)N[C@@H](CC(N)=O)C(=O)N[C@H](C(=O)O)[C@@H](C)O [glucagon]

From patent US20200306346A1 (ADOCIA, priority 2017, published 2020)
